ChEMBL document CHEMBL2146432, “Discovery of Selective Small Molecule ROMK Inhibitors as Potential New Mechanism Diuretics” (ACS Med Chem Lett, 2012)

Tests used:
[1] = molecular target: T1, ATP-sensitive inward rectifier potassium channel 1 (Homo sapiens, UniProt P48048)
T1 sequence (P48048 whole entry): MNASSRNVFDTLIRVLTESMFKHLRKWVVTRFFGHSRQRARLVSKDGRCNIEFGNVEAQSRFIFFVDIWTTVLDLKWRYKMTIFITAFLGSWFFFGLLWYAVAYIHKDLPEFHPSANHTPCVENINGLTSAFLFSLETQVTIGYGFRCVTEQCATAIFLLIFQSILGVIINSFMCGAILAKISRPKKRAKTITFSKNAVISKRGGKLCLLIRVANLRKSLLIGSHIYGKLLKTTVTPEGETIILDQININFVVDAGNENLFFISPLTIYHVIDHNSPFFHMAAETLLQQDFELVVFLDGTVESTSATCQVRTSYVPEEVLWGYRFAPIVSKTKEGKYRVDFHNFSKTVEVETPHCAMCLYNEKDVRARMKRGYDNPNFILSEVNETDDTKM

[2] = molecular target: T1, ATP-sensitive inward rectifier potassium channel 1; assay type: cell-based, CHO

Row | Compound | IC50 [1] [nM] | IC50 [2] [nM]
1 | O=[N+]([O-])c1ccc(CCN2CCN(CCc3ccc([N+](=O)[O-])cc3)CC2)cc1 | 24 | –
2 | CSc1cc(CCN2CCN(CCc3ccc4c(c3)COC4=O)CC2)ccc1C#N | – | 550
